From patent US12522569B2, “Substituted benzimidazole derivative and use thereof” (Chengdu FANXI Biopharma Co., Ltd., priority 2020, dated 2026)
This is a selection: effects in other tests are not listed, and their absence says nothing.

The chains behind the UniProt entries cited, without tags or fusion partners. Where a name states a change or a piece, a line headed by the entry shows the natural chain unless it says otherwise. Residues count along the entry.
UniProt Q07869, 239-466 limits assumed: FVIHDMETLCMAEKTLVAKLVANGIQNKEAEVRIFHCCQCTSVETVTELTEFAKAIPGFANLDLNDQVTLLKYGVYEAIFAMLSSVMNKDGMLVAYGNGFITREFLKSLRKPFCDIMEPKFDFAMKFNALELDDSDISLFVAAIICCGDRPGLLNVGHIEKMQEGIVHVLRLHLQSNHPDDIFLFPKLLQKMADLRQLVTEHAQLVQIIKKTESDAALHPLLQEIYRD
UniProt P37231, 238-503 limits assumed: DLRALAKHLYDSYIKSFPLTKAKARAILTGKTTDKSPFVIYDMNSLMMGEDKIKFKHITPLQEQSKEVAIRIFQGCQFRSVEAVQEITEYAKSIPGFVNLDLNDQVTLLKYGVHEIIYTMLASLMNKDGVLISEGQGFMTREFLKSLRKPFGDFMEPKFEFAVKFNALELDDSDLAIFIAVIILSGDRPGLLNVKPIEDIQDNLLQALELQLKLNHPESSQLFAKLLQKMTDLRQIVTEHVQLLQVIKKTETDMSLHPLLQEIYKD
UniProt Q03181, 211-439 limits assumed: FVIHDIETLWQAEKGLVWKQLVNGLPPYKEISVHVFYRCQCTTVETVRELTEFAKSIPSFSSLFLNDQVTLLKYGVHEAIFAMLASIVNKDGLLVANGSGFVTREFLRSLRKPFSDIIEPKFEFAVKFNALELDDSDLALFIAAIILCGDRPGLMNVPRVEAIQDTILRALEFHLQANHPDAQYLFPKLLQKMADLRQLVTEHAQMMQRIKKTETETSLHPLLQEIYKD

Assays:
[1] = target: hPPARα (LBD) (Homo sapiens, UniProt Q07869); assay: GAL4-hPPARα (LBD) luciferase reporter transactivation in CV-1 cells; details: read-out: PPAR activities EC50 PPARα, about 40 hours, relative to GW-590735 as 100%
[2] = target: hPPARγ (LBD) (Homo sapiens, UniProt P37231); assay: GAL4-hPPARγ (LBD) luciferase reporter transactivation in CV-1 cells; details: read-out: PPAR activities EC50 PPARγ, about 40 hours, relative to Rosiglitazone as 100%
[3] = target: hPPARδ (LBD) (Homo sapiens, UniProt Q03181); assay: GAL4-hPPARδ (LBD) luciferase reporter transactivation in CV-1 cells; details: read-out: PPAR activities EC50 PPARδ, about 40 hours, relative to GW-501516 as 100%

| SMILES | EC50 [1] [nM] | EC50 [2] [µM] | EC50 [3] [µM] |
| --- | --- | --- | --- |
| CCc1cc(COc2ccc(Cc3nc4ccccc4n3CCN3CCCC3)cc2)ccc1CCC(=O)O | 1060 | 6.59 | 21 |
| CCc1cc(COc2ccccc2Cc2nc3cc(Br)ccc3n2CCN2CCCC2)ccc1CCC(=O)O | 123 | 4.37 | 0.66 |
| CCc1cc(COc2ccccc2Cc2nc3ccccc3n2CCN2CCCC2)ccc1CCC(=O)O | 93.6 | 9.2 | 4.77 |
